Data: patent publication US10604554B2, “Double-acylated GLP-1 derivatives” (Novo Nordisk A/S, priority 2012, dated 2020)

By UniProt entry, the sequences of proteins in these tests, tags left out. Residues count along the entry.
UniProt P43220, 24-463: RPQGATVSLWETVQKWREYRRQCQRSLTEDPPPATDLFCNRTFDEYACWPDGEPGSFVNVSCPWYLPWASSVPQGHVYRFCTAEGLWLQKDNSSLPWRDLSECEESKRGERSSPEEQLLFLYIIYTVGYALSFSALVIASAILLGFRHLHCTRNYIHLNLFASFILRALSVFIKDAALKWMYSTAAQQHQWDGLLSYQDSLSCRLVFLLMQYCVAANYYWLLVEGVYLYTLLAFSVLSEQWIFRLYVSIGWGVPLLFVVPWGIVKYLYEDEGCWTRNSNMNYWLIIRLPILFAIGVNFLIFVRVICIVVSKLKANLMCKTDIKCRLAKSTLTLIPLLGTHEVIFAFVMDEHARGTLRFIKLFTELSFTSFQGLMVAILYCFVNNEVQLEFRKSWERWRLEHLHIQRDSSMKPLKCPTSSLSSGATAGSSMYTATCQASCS

Target: T1, human GLP-1 receptor (Homo sapiens, UniProt P43220)
T1 construct: expressed in transfected cells; host or cells: BHK cells, clone FCW467-12A/KZ10-1 (parent line BHKTS13), further transfected with CRE luciferase
Assay: In vitro potency (AlphaScreen cAMP, membranes)
Assay type: biochemical
Details: cAMP formation in membranes from BHK467-12A cells expressing human GLP-1 receptor
Procedure: The purpose of this example is to test the activity, or potency, of the GLP-1 derivatives in vitro.
Purified plasma membranes from a stable transfected cell line, BHK467-12A (tk-ts13), expressing the human GLP-1 receptor were stimulated with the GLP-1 analogue or derivative in question, and the potency of cAMP production was measured using the AlphaScreen™ cAMP Assay Kit from Perkin Elmer Life Sciences. The basic principle of the AlphaScreen Assay is a competition between endogenous cAMP and exogenously added biotin-cAMP. The capture of cAMP is achieved by using a specific antibody conjugated to acceptor beads.
A stable transfected cell line and a high expressing clone were selected for screening. The cells were grown at 5% CO2 in DMEM, 5% FCS, 1% Pen/Strep (Penicillin/Streptomycin) and 0.5 mg/ml of the selection marker G418.
Cells at approximately 80% confluence were washed 2× with PBS and harvested with Versene (aqueous solution of the tetrasodium salt of ethylenediaminetetraacetic acid), centrifuged 5 min at 1000 rpm and the supernatant removed. The additional steps were all performed on ice. […] The protein concentration was determined and the membranes stored at −80° C. until use. […]

Question: `CC[C@H](C)[C@H](NC(=O)[C@H](Cc1ccccc1)NC(=O)[C@H](CCC(=O)O)NC(=O)[C@H](CCCCNC(=O)[C@@H](N)CCCCNC(=O)[C@@H](N)CCCCNC(=O)CC[C@H](NC(=O)CCCCCCCCCCCCCCC(=O)O)C(=O)O)NC(=O)[C@H](C)NC(=O)[C@H](C)NC(=O)[C@H](CCC(N)=O)NC(=O)CNC(=O)[C@H](CCC(=O)O)NC(=O)[C@H](CC(C)C)NC(=O)[C@H](Cc1ccc(O)cc1)NC(=O)[C@H](CO)NC(=O)[C@H](CO)NC(=O)[C@@H](NC(=O)[C@H](CC(=O)O)NC(=O)[C@H](CO)NC(=O)[C@@H](NC(=O)[C@H](Cc1ccccc1)NC(=O)[C@@H](NC(=O)CNC(=O)[C@H](CCC(=O)O)NC(=O)C(C)(C)NC(=O)[C@@H](N)Cc1c[nH]cn1)[C@@H](C)O)[C@@H](C)O)C(C)C)C(=O)N[C@@H](C)C(=O)N[C@@H](Cc1c[nH]c2ccccc12)C(=O)N[C@@H](CC(C)C)C(=O)N[C@H](C(=O)N[C@@H](CCCNC(=N)N)C(=O)NCC(=O)N[C@@H](CCCNC(=N)N)C(=O)N[C@@H](CCCCNC(=O)[C@@H](N)CCCCNC(=O)[C@@H](N)CCCCNC(=O)CC[C@H](NC(=O)CCCCCCCCCCCCCCC(=O)O)C(=O)O)C(=O)O)C(C)C` [Example 6, N^ε26-[(2S)-2-amino-6-[[(2S)-2-amino-6-[[(4S)-4-carboxy-4-(15-carboxypentadecanoylamino)butanoyl]amino]hexanoyl]amino]hexanoyl], N^ε37-[(2S)-2-amino-6-[[(2S)-2-amino-6-[[(4S)-4-carboxy-4-(15-carboxypentadecanoylamino)butanoyl]amino]hexanoyl]amino]hexanoyl]-[Aib^8,Arg^34,Lys^37]-GLP-1-(7-37)-peptide] was tested. Which EC50 did it give?
Answer: 0.634 nM
